How the values were obtained:
[1] = test system: acetic acid-induced writhing in mice; conditions: oral doses of 1, 3, and 10 mg/kg, about 60 minutes before 0.5% acetic acid intraperitoneal
[2] = test system: tail flick latency in mice; conditions: oral 1, 3, and 10 mg/kg, about 60 minutes after administration

Cc1cc2c(s1)Nc1ccccc1N=C2N1CCN(C)CC1 [olanzapine, 2-methyl-4-(4-methyl-1-piperazinyl)-10H-thieno[2,3-b][1,5] benzodiazepine]
analgesic effect, acetic acid-induced writhing (number of writhes) compared to controls [1]: significant analgesic effect | tail flick latency with respect to control latencies [2]: significant increases in tail flick latencies
